From patent US20250127907A1, “PARP INHIBITORS” (Stablix, Inc., priority 2023, published 2025)
pIC50: −log10 of the molar value. Where two headings read alike, the source gives them in different places.

Sequences of proteins named here, by UniProt entry; tags and fusion partners are left off.
UniProt P09874, whole entry: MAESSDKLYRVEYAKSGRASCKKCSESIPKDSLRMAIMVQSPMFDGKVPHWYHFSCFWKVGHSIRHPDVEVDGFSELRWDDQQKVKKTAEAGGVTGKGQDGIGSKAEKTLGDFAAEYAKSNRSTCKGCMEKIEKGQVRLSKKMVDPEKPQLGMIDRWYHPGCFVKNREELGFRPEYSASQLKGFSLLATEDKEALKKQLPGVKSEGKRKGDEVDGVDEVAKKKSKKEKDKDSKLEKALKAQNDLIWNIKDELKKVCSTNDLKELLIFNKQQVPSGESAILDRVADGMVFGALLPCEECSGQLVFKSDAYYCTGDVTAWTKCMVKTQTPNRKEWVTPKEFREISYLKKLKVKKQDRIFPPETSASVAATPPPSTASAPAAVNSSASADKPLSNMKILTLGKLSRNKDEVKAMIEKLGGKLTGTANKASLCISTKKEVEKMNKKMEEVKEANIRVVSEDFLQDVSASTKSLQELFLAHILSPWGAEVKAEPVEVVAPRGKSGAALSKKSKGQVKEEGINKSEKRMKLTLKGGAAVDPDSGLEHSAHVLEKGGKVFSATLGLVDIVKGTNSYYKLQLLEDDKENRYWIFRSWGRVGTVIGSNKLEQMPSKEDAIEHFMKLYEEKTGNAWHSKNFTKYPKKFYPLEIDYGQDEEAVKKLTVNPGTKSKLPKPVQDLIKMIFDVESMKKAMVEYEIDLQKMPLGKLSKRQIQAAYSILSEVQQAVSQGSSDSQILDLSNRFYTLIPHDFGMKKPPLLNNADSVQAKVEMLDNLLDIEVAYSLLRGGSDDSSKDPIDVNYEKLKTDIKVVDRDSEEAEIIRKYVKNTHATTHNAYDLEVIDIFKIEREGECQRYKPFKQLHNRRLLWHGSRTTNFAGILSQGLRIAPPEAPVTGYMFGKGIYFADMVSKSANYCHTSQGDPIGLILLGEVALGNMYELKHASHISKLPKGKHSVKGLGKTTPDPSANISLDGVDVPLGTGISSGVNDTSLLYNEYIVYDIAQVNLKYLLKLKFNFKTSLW

Columns and labels:
[1] = test system: MDA-MB-436 cells; assay: Cell proliferation assay (MDA-MB-436)
[2] = test system: Poly/Mono-ADP Ribose in U2OS cells; assay: PAR in cell western assay (parylation) in U2OS cells
[3] = target: T1, PARP1 (Homo sapiens, UniProt P09874); assay: PARP1-enzyme assay (NAD/NADH-Glo biochemical assay); conditions: read-out: PARP1-Enzyme Assay, recombinant PARP1, NAD+ consumption
[4] = test system: A2780 cells; assay: Cell proliferation assay (A2780)
[5] = target: T1, PARP1; assay: PARP trapping assay in U2OS cells
[6] = read-out: Cell Proliferation (MDA-MB-436), 7 days, tested form: TFA salt
[7] = read-out: Parylation (U2OS), 6 hrs, 2 mM H2O2, tested form: TFA salt
[8] = read-out: Cell proliferation (A2780), 7 days, tested form: TFA salt
[9] = read-out: PARP Trapping (U2OS), MMS, 4 hrs, tested form: TFA salt
[10] = read-out: Cell Proliferation (MDA-MB-436), 7 days
[11] = read-out: Parylation (U2OS), 6 hrs, 2 mM H2O2
[12] = read-out: Cell proliferation (A2780), 7 days
[13] = read-out: PARP Trapping (U2OS), MMS, 4 hrs

pIC50 [1, 6]	pIC50 [2, 7]	pIC50 ([3]; tested form: TFA salt)	pIC50 [4, 8]	pIC50 [5, 9]	pIC50 [1, 10]	pIC50 [2, 11]	pIC50 [3]	pIC50 [4, 12]	pIC50 [5, 13]	Compound	also measured
6.00 to 7.00	6.00 to 7.00	> 9.00	6.00 to 7.00	6.00 to 7.00						O=C(N[C@@H](C(=O)N1CCC(OC2CCN(CC(=O)N3CCN(C(=O)c4cc(Cc5n[nH]c(=O)c6ccccc56)ccc4F)CC3)CC2)CC1)C1CCCCC1)c1cccc([C@H]2CCCN(C(=O)CNC3CC3)C2)c1	
7.00 to 8.00	6.00 to 7.00	> 9.00	7.00 to 8.00	6.00 to 7.00						O=C(N[C@@H](C(=O)N1CCC(OC2CCN(CC(=O)N3CCN(C(=O)c4cc(Cc5n[nH]c(=O)c6ccccc56)ccc4F)CC3)CC2)CC1)C1CCCCC1)c1cccc([C@@H]2CCCN(C(=O)CNC3CC3)C2)c1	
> 8.00	7.00 to 8.00	8.00 to 9.00	7.00 to 8.00	7.00 to 8.00						O=C(CNC1CC1)N1CCC[C@@H](c2cccc(C(=O)N3CCN(CC45CCC(C(=O)N6CCN(C(=O)c7cc(Cc8n[nH]c(=O)c9ccccc89)ccc7F)CC6)(CC4)CO5)CC3)c2)C1	
> 8.00	7.00 to 8.00		7.00 to 8.00	7.00 to 8.00						O=C(CNC1CC1)N1CCC[C@H](c2cccc(C(=O)N3CCN(CC45CCC(C(=O)N6CCN(C(=O)c7cc(Cc8n[nH]c(=O)c9ccccc89)ccc7F)CC6)(CC4)CO5)CC3)c2)C1	
					7.00 to 8.00	6.00 to 7.00	> 9.00	6.00 to 7.00	7.00 to 8.00	CCOc1cc(OC)ccc1CNCC(=O)N1CCC[C@@H](c2cccc(C(=O)N[C@@H](C(=O)N3CCC(CN4CCN(CC(=O)N5CCN(C(=O)c6cc(Cc7n[nH]c(=O)c8ccccc78)ccc6F)CC5)CC4)CC3)C3CCCCC3)c2)C1	
					7.00 to 8.00	6.00 to 7.00	> 9.00	5.00 to 6.00	6.00 to 7.00	CCOc1cc(OC)ccc1CNCC(=O)N1CCCC(c2cccc(C(=O)N[C@@H](C(=O)N3CCC(CN4CCN(CC(=O)N5CCN(C(=O)c6cc(Cc7n[nH]c(=O)c8ccccc78)ccc6F)CC5)CC4)CC3)C3CCCCC3)c2)C1 (stereo partly drawn)	
										CCc1cccc(-c2cnc(C(=O)N3CCN(CC4CCN(CC(=O)N5CCN(C(=O)c6cc(Cc7n[nH]c(=O)c8ccccc78)ccc6F)CC5)CC4)CC3)c(NC(=O)CNCc3cccc(C)c3)c2)c1	pIC50 ([1]; read-out: Cell Proliferation (MDA-MB-436), 7 days, tested form: FA salt): 7.00 to 8.00; pIC50 ([2]; read-out: Parylation (U2OS), 6 hrs, 2 mM H2O2, tested form: FA salt): 6.00 to 7.00; pIC50 ([3]; tested form: FA salt): > 9.00; pIC50 ([4]; read-out: Cell proliferation (A2780), 7 days, tested form: FA salt): 6.00 to 7.00; pIC50 ([5]; read-out: PARP Trapping (U2OS), MMS, 4 hrs, tested form: FA salt): 7.00 to 8.00

Compound	pIC50 [1, 6]	pIC50 [2, 7]	pIC50 ([3]; tested form: TFA salt)	pIC50 [4, 8]	pIC50 [5, 9]	pIC50 [1, 10]	pIC50 [2, 11]	pIC50 [3]	pIC50 [4, 12]	pIC50 [5, 13]	also measured
O=C(N[C@@H](C(=O)N1CCN(CC2CCN(CC(=O)N3CCN(C(=O)c4cc(Cc5n[nH]c(=O)c6ccccc56)ccc4F)CC3)CC2)CC1)C1CCCCC1)c1cccc([C@@H]2CCCN(C(=O)CNCc3ccc(F)cc3F)C2)c1						7.00 to 8.00	7.00 to 8.00	> 9.00	6.00 to 7.00	6.00 to 7.00	
